Bioassay records (PubChem BioAssay)
Shown are actives, neighbours in structure and some others; about 2.3% of the full set was active somewhere.
Nrf2 inh = blocks Nrf2 signaling; A549 ARE-Fluc reporter, luciferase luminescence, 18-24 h; Potency, µM (series often up to 46 µM), actives largely listed as inhibitors; 2.1% of 360,000 active; also: nearly all actives have a fitted effect of over 60% in size
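Cells were seeded and rested 2 h, then exposed to compounds for 18-24 h. CellTiter-Fluor was read first as a viability measure. BugLite was added 15 min before the final luminescent read of ARE-luciferase activity in A549 cells.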
Mito fusion act = inhibitors of mitochondrial division or activators of mitochondrial fusion; S. cerevisiae fusion-defective mutant growth rescue, CellTiterGlo 48 h; Potency, µM (top dose mostly 46.1 µM), actives largely listed as activators; 0.23% of 320,000 active; AID 485298; also: nearly all actives have a fitted effect of over 45% in size
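Yeast fusion mutant, YPEG (non-fermentable carbon), compound, 48 h at 37C non-permissive; CellTiterGlo added, 10 min RT, luminescence read. Rescued growth = division inhibition.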
A549 viability = counter-screen for Nrf2 inhibitors: cytotoxicity in A549 cells; A549 ARE-Fluc cells, CellTiter-Fluor viability, 18-24 h; Potency, µM (titrated, usually from 46 µM), most hits filed as inhibitors; 0.16% of 390,000 active; AID 504648
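Cytotoxicity counterscreen: CellTiter-Fluor fluorescence was measured in A549 ARE_Fluc cells after 18-24 h of compound exposure in a concentration series. The subsequent BugLite luminescent read reports ARE-luciferase activity.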
Glioma ERSR ind = inducers of ER stress response in human glioma cells. U87-MG GRP78 promoter luciferase reporter, 16 h. Potency, µM, hits mostly activators. 0.02% of 420,000 active; also: series mostly up to about 76 µM; nearly all actives have a fitted effect of over 35% in size
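Stably transfected U87-MG human glioma cells carrying a GRP78-based luminescent sensor were seeded at 1000 cells/well, pin-dosed with compounds and incubated 16 h. Luciferase reagent was then added, and end-point luminescence was read after 10 min at room temperature.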
Nrf2 ARE act = activators of Nrf2 (ARE) signaling. AID 624171. AREc32 ARE-luciferase reporter (MCF7-derived line), luminescence, 24 h. 0.31% of 410,000 active. Potency, µM (highest dose often 46.1 µM), most hits filed as activators; also: nearly all actives have a fitted effect of over 65% in size
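Quantitative high-throughput format: AREc32 reporter cells, 1000 per well, received compound by pin transfer and were incubated 24 hr at 37 deg C, 5% CO2, before Steady-Glo luminescence detection.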
miR-21 FLuc = miR-21 reporter, rising signal | HeLa miR-21 FLuc reporter, luciferase, 48 h | Potency, µM (top dose mostly 38.3 µM) | 340,000 tested, under 10 active | AID 2288; active = well fitted rising curve with a large enough effect; inconclusive = small, poorly fitted or top-dose-only effect; inactive = no such curve, though single readings can be large or run the other way;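 further: miR-21 action dims this reporter so a rising signal means less miR-21 action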
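HeLa cells endogenously expressing miR-21, stably carrying CMV-driven firefly luciferase with a downstream miR-21 binding site, 2000 cells/well. Titrations up to approximately 40 uM, 48 hours; luciferase luminescence read.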
Numbers stand for hits. Unless noted, calls follow the shape of the dose curve; as a rule, active = well fitted curve in the direction sought with a large enough effect; inconclusive = small, poorly fitted or top-dose-only effect, or another doubt; inactive = no such curve, though single readings can be large; an effect the other way counts as inactive or inconclusive.

For OC(Cn1cncn1)(c1ccc(F)cc1)c1ccc(Cl)cc1 (configuration not stated) the results were Nrf2 inh inactive, Mito fusion act 7.1µM, A549 viability inactive, Glioma ERSR ind inactive, Nrf2 ARE act inactive and miR-21 FLuc inactive.
Screening CC1CCC(NC(=O)COc2ccc(C(=O)c3ccccc3)cc2)CC1 (configuration not stated) returned Nrf2 inh 18µM, Mito fusion act inactive, A549 viability inactive, Glioma ERSR ind inactive, Nrf2 ARE act inactive and miR-21 FLuc inactive.
Screening CC1(C)CC2CN(C(=O)Cc3ccccc3)C(C)(C2)C1 (configuration not stated) returned Nrf2 inh inactive, Mito fusion act inactive, A549 viability inactive, Glioma ERSR ind inactive, Nrf2 ARE act inactive and miR-21 FLuc inactive.
For Cc1ccc(C(C)C)c(OCC(=O)N/N=C/c2cccn2C)c1 the results were Nrf2 inh inconclusive, Mito fusion act inactive, A549 viability inactive, Glioma ERSR ind inactive, Nrf2 ARE act inactive and miR-21 FLuc inactive.
For CC(C)Oc1ccc(C(=O)/C(=C\c2cccs2)c2nc3ccccc3o2)cc1 the results were Nrf2 inh inactive, Mito fusion act 10µM, A549 viability inactive, Glioma ERSR ind inactive, Nrf2 ARE act inactive and miR-21 FLuc inactive.
Screening COCC(C)NC(=O)CCS(=O)(=O)c1nc(-c2ccc(OC)cc2)cc(C(F)(F)F)n1 (configuration not stated) returned Nrf2 inh inactive, Mito fusion act inactive, A549 viability inactive, Glioma ERSR ind inactive, Nrf2 ARE act 16µM and miR-21 FLuc inactive.
COC(=O)CCS(=O)(=O)c1nc(-c2ccccc2)cc(C(F)(F)F)n1 was read as Nrf2 inh inconclusive, Mito fusion act inactive, A549 viability inconclusive, Glioma ERSR ind inactive, Nrf2 ARE act inconclusive and miR-21 FLuc inconclusive.
`CCOC(=O)CS(=O)(=O)c1nc(-c2ccc(F)cc2)cc(C(F)(F)F)n1` gave Nrf2 inh 16µM, Mito fusion act inactive, A549 viability inconclusive, Glioma ERSR ind inactive, Nrf2 ARE act inconclusive and miR-21 FLuc inconclusive.
Screening CCCn1nc(C(=O)N2CC(=O)Nc3ccccc32)c2ccccc2c1=O returned Nrf2 inh inconclusive, Mito fusion act inactive, A549 viability inactive, Glioma ERSR ind inactive, Nrf2 ARE act inactive and miR-21 FLuc inactive.
COc1ccc(C[C@H](N)C(=O)N[C@H]2[C@@H](O)[C@H](n3cnc4c(N(C)C)ncnc43)O[C@@H]2CO)cc1 was read as Nrf2 inh 1.5µM, Mito fusion act inactive, A549 viability 1.5µM, Glioma ERSR ind inactive and Nrf2 ARE act inactive.
CCc1cccc(CC)c1NC(=O)c1cc(S(=O)(=O)N2CCc3ccccc32)cn1C was read as Nrf2 inh 23µM, A549 viability inactive, Glioma ERSR ind inactive, Nrf2 ARE act inactive and miR-21 FLuc inactive.
For CC(C)(C)NC(=O)CSc1nncn1NCc1cccc2ccccc12 the results were Nrf2 inh inactive, Mito fusion act inactive, A549 viability inactive, Glioma ERSR ind inactive, Nrf2 ARE act inactive and miR-21 FLuc inactive.
Screening CCOC(=O)c1c(C)[nH]c(C)c1C(=O)Cn1nnc(-c2ccccc2C)n1 returned Nrf2 inh 13µM, Mito fusion act inactive, A549 viability inactive, Glioma ERSR ind inactive, Nrf2 ARE act inactive and miR-21 FLuc inactive.
CCOC(=O)c1c(C)[nH]c(C(=O)Cn2nnc(-c3ccccc3Cl)n2)c1C was read as Nrf2 inh inconclusive, Mito fusion act inactive, A549 viability inactive, Glioma ERSR ind inactive, Nrf2 ARE act inactive and miR-21 FLuc inactive.
Clc1ccccc1OCCn1cnc2ccccc21 was read as Nrf2 inh inconclusive, Mito fusion act inactive, A549 viability inactive, Glioma ERSR ind inactive, Nrf2 ARE act inactive and miR-21 FLuc inactive.
For Brc1ccccc1OCCCCn1cnc2ccccc21 the results were Nrf2 inh 7.3µM, Mito fusion act inactive, A549 viability inactive, Glioma ERSR ind inactive, Nrf2 ARE act inactive and miR-21 FLuc inactive.
`O=S(=O)(c1cc(C(F)(F)F)ccc1Cl)N1CCN(c2ncnc3ccccc23)CC1` gave Nrf2 inh 18µM, Mito fusion act inactive, A549 viability inactive, Glioma ERSR ind inactive and Nrf2 ARE act inactive.
For Cc1nnc(N2CCC(C(=O)NCCc3ccccc3)CC2)c2nn(-c3ccccc3)c(C)c12 the results were Nrf2 inh inactive, A549 viability inactive, Glioma ERSR ind inactive, Nrf2 ARE act inactive and miR-21 FLuc inactive.
CN(C)C(=O)/C=C\c1cn(-c2ccccc2)nc1-c1ccc2c(c1)OCCO2 was read as Nrf2 inh inconclusive, Mito fusion act 18µM, A549 viability inactive, Glioma ERSR ind inactive, Nrf2 ARE act inactive and miR-21 FLuc inactive.
O=C(O)/C=C/c1cn(-c2ccccc2)nc1-c1ccc2c(c1)OCCO2 was read as Nrf2 inh inconclusive, Mito fusion act inactive, A549 viability inactive, Glioma ERSR ind inactive, Nrf2 ARE act inactive and miR-21 FLuc inactive.
`Cc1ccc([N+](=O)[O-])c2c1C(N1CCCC1)C(C)(C)O2` (configuration not stated) gave Nrf2 inh inactive, Mito fusion act inactive, A549 viability inactive, Glioma ERSR ind inactive, Nrf2 ARE act inactive and miR-21 FLuc inactive.
Screening Cc1ccc(S(=O)(=O)N(C)c2ccccc2C(=O)Nc2ccc(F)cc2F)cc1 returned Nrf2 inh inactive, Mito fusion act inactive, A549 viability inactive, Glioma ERSR ind inactive, Nrf2 ARE act inactive and miR-21 FLuc inactive.
Nc1ccc2c(c1)C(=O)C(=O)c1ccccc1-2 was read as Mito fusion act inactive, A549 viability inconclusive, Glioma ERSR ind inactive, Nrf2 ARE act inactive and miR-21 FLuc inconclusive.
O=C1C(=O)c2ccc(-c3ccccc3)cc2-c2ccccc21 was read as Nrf2 inh 21µM, Mito fusion act inactive, Glioma ERSR ind inactive, Nrf2 ARE act inactive and miR-21 FLuc inactive.
For Cc1ccc(CNC(=O)CCCn2nc(C)n3c(cc4sccc43)c2=O)cc1 the results were Nrf2 inh inactive, A549 viability inactive, Glioma ERSR ind inactive, Nrf2 ARE act inactive and miR-21 FLuc inactive.
CCCCCCn1c(N2CCN(c3ccccc3)CC2)nc2c1c(=O)[nH]c(=O)n2C was read as Nrf2 inh 21µM, Mito fusion act inconclusive, A549 viability inconclusive, Glioma ERSR ind inconclusive, Nrf2 ARE act inactive and miR-21 FLuc inactive.
O=C(c1ccc(N2CCCCC2)c([N+](=O)[O-])c1)N(Cc1ccccc1)c1ccccn1 was read as Nrf2 inh 16µM, Mito fusion act inactive, A549 viability inactive, Glioma ERSR ind inactive, Nrf2 ARE act inactive and miR-21 FLuc inactive.
For O=C(c1ccc(N2CCCC2)c([N+](=O)[O-])c1)N1CCc2ccccc2C1 the results were Nrf2 inh inconclusive, Mito fusion act inconclusive, A549 viability inactive, Glioma ERSR ind inactive and Nrf2 ARE act inactive.
